Assay results reported in patent US11214540B2, “Compositions for treating neurodegenerative diseases” (COGNITION THERAPEUTICS, INC., priority 2017, dated 2022).

Chains of the proteins cited; added tags and fusions are not shown.
UniProt Q12809, whole entry: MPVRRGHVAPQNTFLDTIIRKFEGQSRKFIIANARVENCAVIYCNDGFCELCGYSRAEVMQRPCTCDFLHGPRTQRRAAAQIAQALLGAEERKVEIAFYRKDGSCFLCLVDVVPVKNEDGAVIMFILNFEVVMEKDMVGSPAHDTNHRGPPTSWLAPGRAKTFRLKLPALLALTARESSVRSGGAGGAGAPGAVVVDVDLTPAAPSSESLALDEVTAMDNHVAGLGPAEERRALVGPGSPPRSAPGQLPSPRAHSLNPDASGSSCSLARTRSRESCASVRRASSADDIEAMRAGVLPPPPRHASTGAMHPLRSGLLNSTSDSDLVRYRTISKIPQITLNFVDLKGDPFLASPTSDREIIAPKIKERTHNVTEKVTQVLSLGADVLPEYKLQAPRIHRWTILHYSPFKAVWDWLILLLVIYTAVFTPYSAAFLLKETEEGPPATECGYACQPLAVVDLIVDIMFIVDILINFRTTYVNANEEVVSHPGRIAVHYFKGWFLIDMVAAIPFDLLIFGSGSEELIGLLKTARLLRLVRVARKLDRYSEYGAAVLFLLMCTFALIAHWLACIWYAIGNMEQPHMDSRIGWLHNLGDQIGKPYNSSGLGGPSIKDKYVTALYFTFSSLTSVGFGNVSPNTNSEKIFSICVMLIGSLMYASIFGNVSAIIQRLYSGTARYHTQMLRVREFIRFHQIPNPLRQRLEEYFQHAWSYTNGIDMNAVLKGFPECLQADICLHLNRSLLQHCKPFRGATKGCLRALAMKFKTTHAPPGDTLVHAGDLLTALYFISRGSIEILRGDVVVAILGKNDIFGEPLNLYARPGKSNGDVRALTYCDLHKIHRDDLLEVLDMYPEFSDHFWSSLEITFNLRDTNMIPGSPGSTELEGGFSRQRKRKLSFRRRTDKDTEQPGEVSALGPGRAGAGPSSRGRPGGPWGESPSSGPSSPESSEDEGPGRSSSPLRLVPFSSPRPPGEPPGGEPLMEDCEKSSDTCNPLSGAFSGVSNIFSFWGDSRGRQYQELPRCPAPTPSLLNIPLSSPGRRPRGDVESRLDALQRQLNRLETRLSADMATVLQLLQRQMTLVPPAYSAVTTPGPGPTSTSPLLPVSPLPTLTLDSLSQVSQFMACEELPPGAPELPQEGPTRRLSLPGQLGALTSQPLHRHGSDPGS
UniProt Q99720, whole entry: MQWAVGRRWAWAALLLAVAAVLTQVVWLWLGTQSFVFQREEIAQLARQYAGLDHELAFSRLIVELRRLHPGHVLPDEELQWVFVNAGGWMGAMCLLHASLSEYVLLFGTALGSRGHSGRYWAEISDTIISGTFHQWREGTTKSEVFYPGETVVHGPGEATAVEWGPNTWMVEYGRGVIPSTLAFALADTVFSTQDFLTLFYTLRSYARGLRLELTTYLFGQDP
UniProt Q5U3Y7, whole entry: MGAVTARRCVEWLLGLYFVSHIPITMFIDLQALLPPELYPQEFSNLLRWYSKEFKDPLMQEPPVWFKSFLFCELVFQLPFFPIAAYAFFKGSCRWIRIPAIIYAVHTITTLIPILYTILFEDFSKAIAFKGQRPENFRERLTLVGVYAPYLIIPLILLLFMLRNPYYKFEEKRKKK

What was measured:
[1] = target: potassium channel hERG (Homo sapiens (Human), UniProt Q12809); assay: In vitro testing for hERG inhibition; details: read-out: hERG IC50; in vitro toxicity potassium channel hERG
[2] = log P; format: physicochemical
[3] = tested on: Abeta oligomer-induced membrane trafficking deficits in primary hippocampal neurons; assay: Membrane Trafficking/Exocytosis (MTT) assay, Abeta oligomer effect on neurons; details: read-out: EC50 Abeta
[4] = target: Sigma-1 receptors on Jurkat cell membranes (Homo sapiens (Human), UniProt Q99720); assay: Competitive Radioligand Binding Assay 1, Sigma-1 binding ([3H](+)pentazocine displacement); details: read-out: S1 Ki; sigma-1 receptor affinity
[5] = Mouse liver microsome (MLM) stability; details: microsomal stability in mouse liver microsomes (MLM)
[6] = target: Sigma-2 receptors on membranes from rat cerebral cortex (Rattus norvegicus (Rat), UniProt Q5U3Y7); assay: Competitive Radioligand Binding Assay 1, Sigma-2 binding ([3H]DTG displacement with (+)pentazocine mask); details: read-out: S2 Ki; sigma-2 receptor affinity

CC(CC(C)(C)c1ccc(Cl)cc1)N1CCC[C@@H]1CO (stereo partly shown)
IC50 [1]: 11000 nM
log P [2]: 4.03

CC(C)=CC(CC(C)(C)c1ccc(Cl)cc1)NCC1CCOCC1 (stereo not shown)
EC50 [3]: 1800 nM
log P [2]: 5.3

CC(C)=CC(CC(C)(C)c1ccc(C)cc1)NC(C)c1ccccc1 (stereo not shown)
EC50 [3]: 560 nM
log P [2]: 6.93

CC(C)=CC(CC(C)(C)c1ccc(C(F)(F)F)cc1)N1CCN(C2CC(C)OC(C)C2)CC1 (stereo not shown)
Ki [4]: 8.8 nM
EC50 [3]: 200 nM
MLM T1/2 [5]: 38 min
IC50 [1]: 26200 nM
log P [2]: 6.18

CC(C)=CC(CC(C)(C)c1ccc(C)cc1)N1CCC(C)CC1 (stereo not shown)
Ki [6]: 96 nM
EC50 [3]: 1700 nM
log P [2]: 6.31

CC(CC(C)(C)c1ccc(Cl)cc1)N1CCC(CCO)CC1 (stereo not shown)
EC50 [3]: > 15000 nM
IC50 [1]: 75 nM
log P [2]: 4.4

CC(C)=CC(CC(C)(C)c1ccc(C(F)(F)F)cc1)N1CCC2(CCOCC2)CC1 (stereo not shown)
Ki [4]: 5.3 nM
MLM T1/2 [5]: 60 min
IC50 [1]: 23000 nM
log P [2]: 6.15

CC(C)=CC(CC(C)(C)c1ccc(C)cc1)N[C@@H](C)c1ccccc1 (stereo partly shown)
EC50 [3]: 4200 nM
log P [2]: 6.93

CC(C)=CC(CC(C)(C)c1ccc(C(F)(F)F)cc1)N1CCC(C)(C)CC1 (stereo not shown)
EC50 [3]: 2200 nM
MLM T1/2 [5]: 83 min
IC50 [1]: 6500 nM
log P [2]: 6.97

COC[C@H]1CCCN1[C@H](C)CC(C)(C)c1ccc(C(F)(F)F)cc1
Ki [4]: 1000 nM
EC50 [3]: 980 nM
IC50 [1]: 11000 nM
log P [2]: 4.95

CC(C)=CC(CC(C)(C)c1ccc(C)cc1)N1CCC(c2ccncc2)CC1 (stereo not shown)
EC50 [3]: 400 nM
log P [2]: 6.22

CC(C)=CC(CC(C)(C)c1ccc(F)cc1)N1CCC(C(F)(F)F)CC1 (stereo not shown)
Ki [4]: 370 nM
EC50 [3]: 300 nM
MLM T1/2 [5]: 3.5 min
IC50 [1]: 18000 nM
log P [2]: 6.21

COc1ccc(C(C)(C)CC(C=C(C)C)N2CCC(c3ccncc3)CC2)cc1 (stereo not shown)
log P [2]: 5.55

CC(C)=CC(CC(C)(C)c1ccc(F)cc1)NCC1CCOCC1 (stereo not shown)
Ki [4]: 39 nM
MLM T1/2 [5]: 8.8 min
IC50 [1]: 16000 nM
log P [2]: 4.84

COC(=O)N1CCN(C(C=C(C)C)CC(C)(C)c2ccc(F)cc2)CC1 (stereo not shown)
Ki [4]: 571 nM
IC50 [1]: 1900 nM
log P [2]: 4.49

CC(C)=CC(CC(C)(C)c1ccc(F)cc1)N1CCC(C2CCOCC2)CC1 (stereo not shown)
Ki [4]: 40 nM
EC50 [3]: 1600 nM
MLM T1/2 [5]: 14 min
IC50 [1]: 2200 nM
log P [2]: 5.85

CC(C)=CC(CC(C)(C)c1ccc(F)cc1)N1CCN(C(=O)OCC(C)C)CC1 (stereo not shown)
Ki [4]: 575 nM
Ki [6]: 94 nM
IC50 [1]: 2400 nM
log P [2]: 5.74

CC(C)=CC(CC(C)(C)c1ccc(Cl)cc1)N1CCC(CO)CC1 (stereo not shown)
Ki [4]: 150 nM
MLM T1/2 [5]: 88 min
IC50 [1]: 6900 nM
log P [2]: 5.04

COc1ccc(CCC(C)(C)N2Cc3ccc(S(C)(=O)=O)cc3C2)cc1OC
Ki [6]: 11 nM

CC(CC(C)(C)c1ccc(C(F)(F)F)cc1)N1CCC(CO)CC1 (stereo not shown)
Ki [4]: 0.7 nM
EC50 [3]: > 15000 nM
IC50 [1]: 1500 nM
log P [2]: 4.31
